Test results: US20090239891A1 (priority 2006, published 2009)

Assay: Plasma concentration of buprenorphine after intravenous administration (LC/MS)
Settings: mice

Substance: buprenorphine hydrochloride
- Plasma Concentration of buprenorphine (0.08 hours after i.v. 2.4 mg/kg): 1.138e+06 µg/mL
- Plasma Concentration of buprenorphine (0.25 hours after i.v. 2.4 mg/kg): 407000 µg/mL
- Plasma Concentration of buprenorphine (0.5 hours after i.v. 2.4 mg/kg): 207000 µg/mL
- Plasma Concentration of buprenorphine (1 hour after i.v. 2.4 mg/kg): 91200 µg/mL
- Plasma Concentration of buprenorphine (2 hours after i.v. 2.4 mg/kg): 31500 µg/mL
- Plasma Concentration of buprenorphine (3 hours after i.v. 2.4 mg/kg): 22700 µg/mL
- Plasma Concentration of buprenorphine (5 hours after i.v. 2.4 mg/kg): 13000 µg/mL
- Plasma Concentration of buprenorphine (7 hours after i.v. 2.4 mg/kg): 7100 µg/mL
- Plasma Concentration of buprenorphine (9 hours after i.v. 2.4 mg/kg): 5200 µg/mL
- Plasma Concentration of buprenorphine (12 hours after i.v. 2.4 mg/kg): 1900 µg/mL
- Plasma Concentration of buprenorphine (18 hours after i.v. 2.4 mg/kg): 580 µg/mL
- Plasma Concentration of buprenorphine (24 hours after i.v. 2.4 mg/kg): 210 µg/mL
- plasma concentration as % of the initial concentration (within 5 or 6 hours after i.v. 2.4 mg/kg): approximately 1%
